These are literature values, as cited in article PMC10382406, “Head-to-head comparison of different classes of FAP radioligands designed to increase tumor residence time: monomer, dimer, albumin binders, and small molecules vs peptides” (European Journal of Nuclear Medicine and Molecular Imaging, 2023).

For the data set the following is noted: same methodology; cited from earlier work.

For the substance [^177Lu]Lu-DOTA-TATE, the “Estimated absorbed dose to the kidneys” value is recorded as 2.13E-01 mGy/MBq and the Red marrow dose was 1.25E-03 mGy/MBq.
